Experimental data: patent US20050239864A1, “Novel tumor-selective chemotherapeutic agents” (priority 2004, published 2005)
Read-outs that look alike come from different tables or passages of the source.

How the values were obtained:
[1] = tested on: metastatic renal cell carcinoma; details: 17 patients, 50 mg/m^2 once a week i.v.; cited from earlier work
[2] = cited from earlier work
[3] = tested on: malignant mesothelioma of the pleura or peritoneum; details: cited from earlier work
human tumor xenografts = human tumor xenografts s.c. in nude mice; cited from earlier work
Walker-256 carcinoma [4] = details: cited from earlier work
Walker-256 carcinoma [5] = test: Radio-labelled MTX-HSA concentration in tumor tissue; format: in vivo, rats; details: approximate conversion
Procedure: The concentration of MTX-HSA in tumor tissue was measured using radio-labelled MTX-HSA. MTX-HSA was given to female rates bearing the Walker-256 carcinoma at a dose of 13.2 μmol/kg MTX-HSA, which corresponds to 6 mg/kg of MTX (Wosikowski et al., Clin. Cancer Res. 2003, 9, 1917-1926). At 1 h after administration, the MTX-HSA concentration measured was 25 nmol/g tumor tissue, which is approximately 25 μM. At 3 h, the concentration in the tumor reached its maximum (29 nmol/g tumor tissue), which is approximately 29 μM. At 8 and 48 h, […] μM and […] μM of MTX-HSA, respectively, were measured.

[6] = 23/29 patients assessed after 8-12 weeks
[7] = weekly i.v. infusion of 50 mg/m^2

MTX-HSA
duration of stable disease [1]: up to 8 months
median duration of stable disease [1]: 121 days
objective responses [1]: no objective responses were seen
patients with stable disease (stabilization>2 months) [1]: Eight
patients with tumor responses ([2]; Phase I, 17 patients): three
tolerability ([2]; Phase I, 17 patients): well tolerated
response duration, minor response ([2]; one patient with pleural mesothelioma, ongoing): 31 months
response duration, partial response ([2]; one patient with renal cell carcinoma, ongoing): 30 months
response duration, minor response ([2]; one patient with renal cell carcinoma, until progression): 14 months
patients with MR (minor response) [3, 6]: 1
patients with NC>3 month [3, 6]: 11
patients with PR [3, 6]: 1
patients with early disease progression within the first 2 months [3, 6]: 6
time to progression, mean ([3]; weekly 50 mg/m^2): 3.5 months
time to progression, median ([3]; weekly 50 mg/m^2): 4.3 months
tolerability ([3]; weekly 50 mg/m^2): generally well tolerated
grade 3 stomatitis [3, 7]: 10%
grade 3 thrombopenia [3, 7]: 2%
grade 4 stomatitis [3, 7]: 2%
grade 4 thrombopenia [3, 7]: 12%
antitumor activity in vivo (human tumor xenografts): dose-dependent antitumor activity
MTX-HSA concentration in tumor tissue (Walker-256 carcinoma [4]; 1 h after 13.2 μmol/kg MTX-HSA): 25 nmol/g tumor tissue
MTX-HSA concentration in tumor tissue (maximum) (Walker-256 carcinoma [4]; 3 h after 13.2 μmol/kg MTX-HSA): 29 nmol/g tumor tissue
MTX-HSA concentration in tumor tissue (Walker-256 carcinoma [5]; 1 h after 13.2 μmol/kg MTX-HSA): approximately 25 μM
MTX-HSA concentration in tumor tissue (maximum) (Walker-256 carcinoma [5]; 3 h after 13.2 μmol/kg MTX-HSA): approximately 29 μM
